Reference: patent publication US9149426B2, “Nanoparticle composition and methods to make and use the same” (priority 2012, dated 2015)

Test system: NZW rabbits
Experiment: Intravitreal safety studies (fundus, IOP, ERG, OCT, GFAP, TUNEL)

asialo, galactosylated, triantennary (NA3) oligosaccharides
Safe multiple of the predicted efficacious dose: up to 100 × | Toxicity to the eye (intravitreal, 1 nM and 100 nM, up to 2 weeks post-administration): non-toxic
